Reference: US20090105270A1, “Kinase inhibition and anticancer therapy” (priority 2007, published 2009)

By UniProt entry, the sequences of proteins in these tests, tags left out. Residues count along the entry.
UniProt P45983, 1-384 isoform P45983-2: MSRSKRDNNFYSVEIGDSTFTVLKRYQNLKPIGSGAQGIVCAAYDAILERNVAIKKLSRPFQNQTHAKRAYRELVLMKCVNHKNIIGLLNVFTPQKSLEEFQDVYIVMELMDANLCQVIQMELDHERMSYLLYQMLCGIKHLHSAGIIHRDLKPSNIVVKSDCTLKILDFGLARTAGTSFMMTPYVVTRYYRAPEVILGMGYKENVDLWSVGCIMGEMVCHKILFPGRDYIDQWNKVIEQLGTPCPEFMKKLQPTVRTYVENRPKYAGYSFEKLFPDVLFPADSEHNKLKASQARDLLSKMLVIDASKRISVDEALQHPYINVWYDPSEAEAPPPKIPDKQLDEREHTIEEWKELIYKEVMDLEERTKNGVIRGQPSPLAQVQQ

Legend:
EGFR(L858R)(h) = target: T1, EGFR(L858R)(h) (Homo sapiens, UniProt P00533, L858R); assay: Upstate kinase activity inhibition assay EGFR(L858R)(h); type: biochemical; conditions: 0.2 μM Compound E
T1 construct: purchased Upstate (KinaseProfiler service)

JNK1α1(h) = JNK1α1(h) (Homo sapiens, UniProt P45983); assay: Upstate kinase activity inhibition assay JNK1α1(h)

Measured: percentage of enzyme activity that remains

Cc1cc(Nc2cc(N3CCN(C)CC3)nc(Sc3ccc(NC(=O)C4CC4)cc3)n2)n[nH]1 [Compound E, Cyclopropane carboxylic acid {4-[4-(4-methyl-piperazin-1-yl)-6-(5-methyl-2H-pyrazol-3-ylamino)-pyrimidin-2-ylsulphanyl]-phenyl}-amide]
102%: EGFR(L858R)(h) | JNK1α1(h); 0.2 μM Compound E | JNK1α1(h); 4 μM Compound E
